## Apparent affinities of Ab-14 variants for a coronavirus HR2 peptide

Target: peptide PDVDLGDISGINAS, taken from heptad repeat 2 (HR2) of SARS-CoV-2 spike.

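The parent was found by panning a naive human phage display library on the peptide. The variants were designed computationally from a first round of random CDR variants and then made and measured. Their group label is 14H_GP_HC (GP: Gaussian process model; HC: hill climbing; a sequence that several methods proposed may carry one label only). AlphaSeq pools MATa yeast showing the antibodies with MATalpha yeast showing the peptide. Binding brings cells together so that they mate, and sequencing counts the barcode pairs among the diploids. The ratio of observed to expected reads was calibrated, replicate by replicate, on BCL2-family standards whose Kd was known from biolayer interferometry. Each pool was mated in six replicate cultures.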

The variants keep the light chain, the linker and the frameworks of Ab-14 (scFv order VH, three GGGGS repeats, VL).
VH: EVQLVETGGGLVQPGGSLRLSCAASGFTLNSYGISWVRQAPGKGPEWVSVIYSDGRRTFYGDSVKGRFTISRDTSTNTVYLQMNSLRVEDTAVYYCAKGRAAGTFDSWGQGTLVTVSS
VL: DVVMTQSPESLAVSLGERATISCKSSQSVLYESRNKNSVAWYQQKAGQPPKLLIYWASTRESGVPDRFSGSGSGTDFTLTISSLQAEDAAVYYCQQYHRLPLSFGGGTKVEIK

Substitutions are numbered in sequence along the VH above, starting at 1 (not Kabat).
Values are log10 of the apparent Kd in nM; lower means stronger binding.
A pair that was not seen in that replicate is written "nd"; this usually means weak binding, but a binder can also be missed.
The parent sequence was in this pool as ten entries: three were never detected, three once, and four in most replicates, with averages from 0.34 to 2.37.

changes,log10 Kd (nM) by replicate,control signals
T28G S31D S53A R100T,-0.37 0.52 0.21 -0.63 -0.34 -0.06,1 of 18 (1.64)
T28Q G61T R100H,1.43 1.70 0.36 0.94 0.85 1.85,0 of 18
T28E G61S G103V,nd 2.09 1.43 1.95 2.82 1.60,0 of 18
T28K S53A F105N,nd nd 2.19 nd nd nd,0 of 18
G61A S63D R100Q A101L,1.91 0.68 0.46 0.51 1.21 0.97,1 of 18 (2.80)
T28R G61D R100Q A101T,nd nd nd nd nd nd,0 of 18
T28K G61S R100T,0.97 1.07 0.60 0.61 0.88 0.72,0 of 18
T28D S63D T104H,nd nd nd nd nd nd,0 of 18
S31D D106T S107T,nd nd nd nd nd nd,2 of 18 (1.65)
T28K S53A D106K,nd nd nd nd nd nd,0 of 18
G61A R100Q A101V T104K,nd nd nd nd nd nd,0 of 18
S31Q S53A D106T,nd nd nd nd 2.15 1.18,0 of 18
T28V S31E G61S A102G,nd 1.33 2.25 2.21 2.02 1.84,0 of 18
T28S S31D F59Y,0.89 0.88 0.73 0.23 0.72 0.87,0 of 18
S31D F59W D106V,nd nd nd nd nd nd,0 of 18
N30E S53A S63K D106K,nd nd nd 2.11 nd nd,0 of 18
T28Q S31E R100F S107L,nd nd nd nd 0.99 nd,0 of 18
N30E S53A S63K,1.11 1.18 1.21 1.31 0.83 0.83,1 of 18 (1.74)
G61S R100Q A101G,nd nd nd 3.53 nd nd,0 of 18
T28E G61S R100H S107N,1.57 1.03 0.74 0.53 1.32 1.16,0 of 18
F27N S31E G61T A101M,0.51 0.47 -0.18 0.22 0.27 0.72,0 of 18
S31E G61I A101E S107V,0.45 0.21 0.15 -0.49 -0.33 -0.14,0 of 18
T28S S31D R56Q G61S,nd nd -0.07 nd 1.14 -0.29,0 of 18
S31E A101T D106M S107T,2.34 nd nd nd nd nd,0 of 18
S31D G61D D106R,nd nd nd nd nd nd,1 of 18 (2.47)
S31E G61E S63D A101I,1.14 0.63 0.57 0.35 0.50 0.72,1 of 18 (2.22)
T28S S31Q G61S G103V S107T,nd nd nd nd nd nd,0 of 18
S31E S53A D106K S107M,nd nd nd nd nd nd,1 of 18 (1.91)
N30K S31E G103V S107L,nd nd nd nd nd nd,0 of 18
N30Y R100Q A101L,nd nd nd nd nd nd,0 of 18
S31E G61S S63A A101H,0.51 0.23 0.47 0.32 0.81 1.44,0 of 18
N30E S31R,0.60 1.64 1.79 0.78 nd 1.11,0 of 18
T28E S31E G61E S63D A101T,0.79 0.57 0.20 0.29 0.49 0.78,0 of 18
S31E G61A G103V,nd nd nd nd nd nd,1 of 18 (2.44)
S31D R56M A101T D106W,nd nd nd nd nd nd,0 of 18
T28E S31E F59Q G61I,1.25 0.51 0.55 0.78 0.48 0.85,1 of 18 (2.16)
S31E G61H D106W S107T,0.14 -0.95 0.83 -1.00 -0.50 0.22,0 of 18
N30D D106T S107V,nd nd nd nd nd nd,0 of 18
G61H R100K T104I S107T,nd nd nd nd nd nd,0 of 18

Top 3 of the variants detected in all replicates, tightest first:

| changes | log10 Kd (nM) by replicate | control signals |
|---|---|---|
| S31E G61H D106W S107T | 0.14 -0.95 0.83 -1.00 -0.50 0.22 | 0 of 18 |
| T28G S31D S53A R100T | -0.37 0.52 0.21 -0.63 -0.34 -0.06 | 1 of 18 (1.64) |
| S31E G61I A101E S107V | 0.45 0.21 0.15 -0.49 -0.33 -0.14 | 0 of 18 |

The authors averaged sequences with at least three values out of six and counted those with two or fewer as poor binders.
Three control strains display no target. For all heavy chain designs, 1% of the pairings with them gave a signal, with a median of 2.08 and one signal in twenty below 0.84, so weak values seen in few replicates may be background. The control count says in how many pairings with the empty strains this scFv gave a signal, with their mean in brackets.
A sequence measured in both rounds can read differently, since the two assays cover different ranges.

Source: Li et al. 2023 (doi:10.1038/s41467-023-39022-2), MIT Lincoln Laboratory and A-Alpha Bio; data file from the FLAb repository.